Test results published in PubChem BioAssay AID687014 (The Scripps Research Institute Molecular Screening Center, 2013).
This is a selection; strong and weak results do not stand in their true shares. Some structures show a salt or complex split into parts, the way the source records it. Active and inactive are the calls of the source.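 How the source made its calls: active means activation above a cutoff set at the mean of all screened compounds plus 3 SD (cut at about 10% in these data); inactive means the rest.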

Each compound was assayed on Nuclear hormone receptor DAF-12 (Heterodera glycines), GAL4 fusion (assay: hgDAF-12 GAL4 fusion reporter activation – cell-based, luminescence, HEK293, UAS-luciferase, primary screen (AID 687014;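 further: 0% = DMSO wells and 100% = sodium butyrate wells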)). Details: HEK293 GAL4-hgDAF12 UAS-luciferase reporter, agonist luminescence; at 6.8 µM; stronger effect = higher value; normalized to butyrate control.

| Compound | activation |
| --- | --- |
| CCOC(=O)c1ccc(NP(C)(=O)Oc2ccc(F)cc2)cc1 (centres undefined) | inactive: -3.73% |
| COc1ccc(OP(C)(=O)Nc2ccc(SC(F)(F)F)cc2)cc1 (centres undefined) | inactive: -5.6% |
| CCN(CC)CCCNc1ccccc1[N+](=O)[O-].O=[N+]([O-])c1cc([N+](=O)[O-])c(O)c([N+](=O)[O-])c1 | inactive: 1.41% |
| CP(=O)(Nc1ccccc1)Oc1ccc(F)cc1 (centres undefined) | inactive: 2.64% |
| O=[N+]([O-])c1cc([N+](=O)[O-])c(OC2CCCCC2O)c([N+](=O)[O-])c1 (centres undefined) | inactive: 0.17% |
| CCCCCOc1ccc(NP(C)(=O)Oc2ccc(Cl)cc2Cl)cc1 (centres undefined) | inactive: 0.19% |
| Cc1c([N+](=O)[O-])cc([N+](=O)[O-])c(Br)c1[N+](=O)[O-] | inactive: -0.2% |
| CCN(CC)CCCOC(=O)C(O)(c1ccccc1)C1CCCCC1 (centres undefined) | inactive: -1.48% |
| CP(=O)(Nc1ccccc1F)Oc1ccccc1 (centres undefined) | inactive: 4.47% |
| CC(C)c1ccc(OP(C)(=O)Nc2ccc(SC(F)(F)F)cc2)cc1 (centres undefined) | inactive: -0.98% |
| O=[N+]([O-])c1cc([N+](=O)[O-])c(Nc2ccc(Cl)cc2)c([N+](=O)[O-])c1 | inactive: -1.84% |
| COc1ccc2c(c1O)-c1c(O)c(OC)cc3c1[C@H](C2)[N+](C)(C)CC3.O=[N+]([O-])c1cc([N+](=O)[O-])c([O-])c([N+](=O)[O-])c1[O-] | inactive: 0.13% |
| O=C(OC1CN2CCC1CC2)c1ccc([N+](=O)[O-])cc1 (centres undefined) | inactive: 0.02% |
| O=C(OCCN1CCN(CCOCc2ccccc2)CC1)C(O)(c1ccccc1)c1ccccc1 | inactive: 0.12% |
| CCOP(C)(=S)SCC(=O)NC(C)(CC)C(=O)O (centres undefined) | inactive: 0.68% |
| CCOP(=O)(CC)OCC | inactive: -0.84% |
| CP(=O)(Nc1ccc(SC(F)(F)F)cc1)Oc1ccc(F)cc1 (centres undefined) | inactive: -2.45% |
| Cc1ccccc1NP(C)(=O)Nc1ccccc1C | inactive: -1.52% |
| O=[N+]([O-])c1cc([N+](=O)[O-])c(C(F)(F)F)c([N+](=O)[O-])c1O | inactive: -3.33% |
| CP(=O)(Nc1ccc2c(c1)OCCO2)Oc1ccccc1 (centres undefined) | inactive: -2.97% |
| CN(C)CCOC(=O)C(O)(c1ccccc1)C1CCCCC1 (centres undefined) | inactive: -1.19% |
| COc1ccc(NP(C)(=O)Oc2ccccc2OC)cc1 (centres undefined) | inactive: 4.03% |
| COc1ccc(OP(C)(=O)Nc2cccc(Br)c2)cc1 (centres undefined) | inactive: -3.23% |
| Cc1c(C(c2ccc3c(c2)OCO3)c2c(C)n(C)n(-c3ccccc3)c2=O)c(=O)n(-c2ccccc2)n1C.O=[N+]([O-])c1cc([N+](=O)[O-])c(O)c([N+](=O)[O-])c1 | inactive: -1.7% |
| O=[N+]([O-])c1ccc(OP2(=O)COCCO2)cc1 (centres undefined) | inactive: 0.91% |

| Compound | activation |
| --- | --- |
| O=[N+]([O-])c1cc([N+](=O)[O-])c(NCC2CCS(=O)(=O)C2)c([N+](=O)[O-])c1 (centres undefined) | inactive: 0.43% |
| Cc1cc(-c2cccc3ccccc23)c(C)cn1.O=[N+]([O-])c1cc([N+](=O)[O-])c(O)c([N+](=O)[O-])c1 | inactive: -2.07% |
| CCOC(=O)c1ccc(NP(C)(=O)Oc2ccc(Cl)cc2)cc1 (centres undefined) | inactive: -0.46% |
| CP(=O)(OC12CC3CC(CC(C3)C1)C2)OC12CC3CC(CC(C3)C1)C2 | inactive: -0.89% |
| Nc1ccc2c(ccc3cccnc32)n1.O=[N+]([O-])c1cc([N+](=O)[O-])c(O)c([N+](=O)[O-])c1 | inactive: 0.96% |
| COc1ccccc1OP(C)(=O)Nc1c(C)n(C)n(-c2ccccc2)c1=O (centres undefined) | inactive: 0.42% |
| O=C(OCCCN1CCCC1)C(O)(c1ccccc1)C1CCCCC1 (centres undefined) | inactive: -0.5% |
| CP(=O)(Oc1ccccc1)N1CCOC1=O (centres undefined) | inactive: -2.06% |
| CCc1ccc(OP(C)(=O)Nc2cccnc2)cc1 (centres undefined) | inactive: -1.2% |
| CCN(CC)CC(O)COC(=O)C(O)(c1ccccc1)C1CCCCC1 (centres undefined) | inactive: -2.06% |
| COc1ccc(OP(C)(=O)Nc2ccc(Br)cc2)cc1 (centres undefined) | inactive: -1.24% |
| CN(C)C(=O)c1c([N+](=O)[O-])cc([N+](=O)[O-])cc1[N+](=O)[O-] | inactive: -3.62% |
| COc1ccccc1OP(C)(=O)Nc1ccccc1Br (centres undefined) | inactive: 0.01% |
| CC(C)(C)c1ccc(OP(C)(=O)O)cc1 | inactive: 1.25% |
| CP(=O)(Nc1ccc(Cl)cc1)Oc1ccc(F)cc1 (centres undefined) | inactive: 0.11% |
| COc1ccc(OP(C)(=O)Nc2ccccn2)cc1 (centres undefined) | inactive: -0.21% |
| CN(C)CCOC(=O)C(O)(c1ccccc1)C1CCCC1 (centres undefined) | inactive: -1.25% |
| COc1ccccc1OP(C)(=O)Nc1ccc(Br)cc1 (centres undefined) | inactive: -1.75% |
| CP(=O)(Nc1ccccn1)Oc1ccccc1 (centres undefined) | inactive: -0.36% |
| COc1ccccc1OP(C)(=O)Nc1ccc(C)cc1C (centres undefined) | inactive: 0.34% |
| CCc1ccc(OP(C)(=O)O)cc1 | inactive: 0.86% |
| Cc1c(NP(C)(=O)Oc2ccc(C(C)C)cc2)c(=O)n(-c2ccccc2)n1C (centres undefined) | inactive: -1.46% |
| O=[N+]([O-])c1cc([N+](=O)[O-])c(Nc2ccccn2)c([N+](=O)[O-])c1 | inactive: -4.69% |
| COc1ccccc1OP(C)(=O)Nc1ccc(C)c(C)c1 (centres undefined) | inactive: -0.03% |
| COc1ccc(OP(C)(=O)Nc2ccccc2Br)cc1 (centres undefined) | inactive: -2.28% |

| Compound | activation |
| --- | --- |
| O=C1C(O)=C([N+](=O)[O-])C(=O)C(O)=C1[N+](=O)[O-] | inactive: 1.67% |
| Cc1cc(C)cc(OP(C)(=O)Nc2cccc(C(F)(F)F)c2)c1 (centres undefined) | inactive: 0.48% |
| CP(=O)(Nc1ccc(Cl)cc1Cl)Oc1ccccc1 (centres undefined) | inactive: 4.07% |
| CCCCCCCCCCCCCCCC1C[N+](C)(C)CCOP(C)(=O)O1 (centres undefined) | inactive: -0.68% |
| CP(=O)(OCCOc1ccccc1)OCCOc1ccccc1 | inactive: -1.29% |
| O=[N+]([O-])c1ccc2c(c1)C=Nc1ccccc1O2 | inactive: 0.92% |
| CC(C)(C)c1ccc(OP(C)(=O)Nc2ccc(SC(F)(F)F)cc2)cc1 (centres undefined) | inactive: -3.1% |
| Cc1cccc(C)c1OP(C)(N)=O (centres undefined) | inactive: -1.09% |
| O=[N+]([O-])c1cc([N+](=O)[O-])c(Nc2cccnc2)c([N+](=O)[O-])c1 | inactive: -0.71% |
| Cc1cc(C)cc(OP(C)(N)=O)c1 (centres undefined) | inactive: -0.1% |
| COc1ccccc1OP(C)(=O)Nc1cc(Cl)ccc1C (centres undefined) | inactive: -3.2% |
| COc1ccc(OP(C)(=O)Nc2cccc(F)c2)cc1 (centres undefined) | inactive: 2.63% |
| COc1ccccc1OP(C)(=O)Nc1ccc(C)cc1 (centres undefined) | inactive: -1.86% |
| Cc1ccc(NP(C)(=O)Oc2ccccc2)c(C)c1 (centres undefined) | inactive: -0.29% |
| CCOC(=O)c1ccc(NP(C)(=O)Oc2ccccc2)cc1 (centres undefined) | inactive: -1.09% |
| CCN(CC)CCCOC(=O)C(O)(c1ccccc1)c1ccccc1 | inactive: -1.55% |
| COc1ccccc1-c1ccccn1.O=[N+]([O-])c1cc([N+](=O)[O-])c(O)c([N+](=O)[O-])c1 | inactive: 1.09% |
| CP(=O)(NC(=O)Nc1ccccc1)Oc1ccccc1 (centres undefined) | inactive: 0.95% |
| CCc1ccc(OP(C)(=O)N2CCN(c3ccc([N+](=O)[O-])cc3)CC2)cc1 (centres undefined) | inactive: -0.85% |
| Cc1cc(C)cc(OP(C)(=O)Nc2ccc(SC(F)(F)F)cc2)c1 (centres undefined) | inactive: -1.11% |
| Cc1cccc(C)c1OP(C)(=O)Nc1ccc(SC(F)(F)F)cc1 (centres undefined) | active: 10.5% |
| CP(=O)(Nc1ccc(SC(F)(F)F)cc1)Oc1ccc(Cl)cc1 (centres undefined) | inactive: -2.3% |
| CP(=O)(Oc1ccccc1)OC(c1ccccc1)C(F)(F)F (centres undefined) | inactive: 0.59% |
| CP(=O)(Nc1ccccn1)Oc1ccc(Cl)cc1 (centres undefined) | inactive: -1.63% |
| CCOC(=O)c1ccc(NP(C)(=O)Oc2ccc(OC)cc2)cc1 (centres undefined) | inactive: -1.17% |

| Compound | activation |
| --- | --- |
| O=[N+]([O-])c1cc([N+](=O)[O-])c(O)c([N+](=O)[O-])c1.c1ccc(Oc2ccncc2)cc1 | inactive: 0.41% |
| CCOP(C)(=S)SCC(=O)NC(C)C(=O)O (centres undefined) | inactive: -0.43% |
| CP(=O)(Nc1ccccc1Br)Oc1ccccc1 (centres undefined) | inactive: -1.06% |
| COc1ccccc1OP(C)(=O)Nc1ccccc1 (centres undefined) | inactive: 1.93% |
| CP(=S)(Nn1cnnc1)Oc1ccccc1 (centres undefined) | inactive: -0.26% |
| O=[N+]([O-])c1cc([N+](=O)[O-])c(Nc2nnnn2CCO)c([N+](=O)[O-])c1 | inactive: -0.86% |
| CCOC(=O)C(CC)C1=NC(C)(C)Cc2ccccc21.O=[N+]([O-])c1cc([N+](=O)[O-])c(O)c([N+](=O)[O-])c1 (centres undefined) | inactive: -1.27% |
| COc1ccc(-c2ccccn2)cc1.O=[N+]([O-])c1cc([N+](=O)[O-])c(O)c([N+](=O)[O-])c1 | inactive: 5.41% |
| CCCOc1ccc(NP(C)(=O)Oc2ccc(Cl)cc2)cc1 (centres undefined) | inactive: 1.81% |
| CP(=O)(Nc1ccc(SC(F)(F)F)cc1)Oc1ccccc1 (centres undefined) | inactive: 0.24% |
| COc1ccccc1OP(C)(=O)Nc1c(C)cccc1C (centres undefined) | inactive: 2.1% |
| CN1CCCCC1COC(=O)C1(O)c2ccccc2CCc2ccccc21 (centres undefined) | inactive: -0.04% |
| CN(Cc1cccnc1)C(=O)COc1ccc(Cl)c(Cl)c1.O=[N+]([O-])c1cc([N+](=O)[O-])c(O)c([N+](=O)[O-])c1 | inactive: 1.15% |
| O=[N+]([O-])c1cc([N+](=O)[O-])c(-n2nnc3ccccc32)c([N+](=O)[O-])c1 | inactive: 0.56% |
| Cc1nc2ccc3ccccc3c2s1.O=[N+]([O-])c1cc([N+](=O)[O-])c(O)c([N+](=O)[O-])c1 | inactive: 2.47% |
| O=[N+]([O-])c1cc([N+](=O)[O-])c(-c2cnn(-c3ccccc3)c2)c([N+](=O)[O-])c1 | inactive: -2.89% |
| CCOC(=O)c1ccc(NP(C)(=O)Oc2cc(C)cc(C)c2)cc1 (centres undefined) | inactive: -2.72% |
| Cc1cc(C)cc(OP(C)(=O)Nc2ccc(C)cc2C)c1 (centres undefined) | inactive: 0.28% |
| COc1ccccc1OP(C)(=O)Nc1cccc(Br)c1 (centres undefined) | inactive: -0.82% |
| Cc1ccc(C)c(NP(C)(=O)Oc2ccccc2)c1 (centres undefined) | inactive: -0.32% |
| Cc1cc(C)cc(OP(C)(=O)Nc2ccccn2)c1 (centres undefined) | inactive: 2.85% |
| CP(=O)(Nc1cccc(Br)c1)Oc1ccccc1 (centres undefined) | inactive: 2.67% |
| O=C(O)c1cccc(Nc2c([N+](=O)[O-])cc([N+](=O)[O-])cc2[N+](=O)[O-])c1 | inactive: 2.73% |
| CC1=NCCc2c1[nH]c1ccccc21.O=[N+]([O-])c1cc([N+](=O)[O-])c(O)c([N+](=O)[O-])c1 | inactive: 3.84% |
